The results in this text go back to PMC7827648 (Molecules, 2021).

The chains behind the UniProt entries cited, without tags or fusion partners.
UniProt P21397, whole entry: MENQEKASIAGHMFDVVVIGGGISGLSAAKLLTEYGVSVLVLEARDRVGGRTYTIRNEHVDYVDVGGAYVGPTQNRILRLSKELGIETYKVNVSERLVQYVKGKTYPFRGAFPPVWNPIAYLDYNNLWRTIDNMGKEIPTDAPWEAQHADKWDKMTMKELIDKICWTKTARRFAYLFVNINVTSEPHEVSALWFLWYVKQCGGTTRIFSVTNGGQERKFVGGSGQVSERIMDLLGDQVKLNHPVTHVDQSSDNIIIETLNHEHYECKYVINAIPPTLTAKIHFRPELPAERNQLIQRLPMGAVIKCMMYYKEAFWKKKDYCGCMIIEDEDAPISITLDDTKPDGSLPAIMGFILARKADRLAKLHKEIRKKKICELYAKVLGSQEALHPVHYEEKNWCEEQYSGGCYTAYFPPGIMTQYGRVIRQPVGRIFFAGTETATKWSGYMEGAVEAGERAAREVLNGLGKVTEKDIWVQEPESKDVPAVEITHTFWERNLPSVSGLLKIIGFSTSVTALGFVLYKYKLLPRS

In general, IC50 refers to the point on the concentration scale where inhibition reaches its midpoint.

The target of the test is T1, human MAO A (Homo sapiens, UniProt P21397).
T1 construct: host or cells: baculovirus-infected insect cells (microsomes)
Type of test: biochemical. To be noted: human recombinant MAO A, kynuramine, mean ± SD (n = 3); read-out: IC50 hMAO A. On the procedure:
[…]. […] […].
The inhibition of human recombinant MAO A (250 U/mg) and B (59 U/mg; microsomes from baculovirus-infected insect cells) was evaluated using the reported 96-well plate technique. on a Tecan Infinite M1000 Pro instrument (Cernusco s.N., Italy). The test compounds, at different concentrations (typically, seven scalar concentrations ranging from 30 to 0.01 μM), were preincubated 20 min at 37 °C with kynuramine used as the MAO substrate in phosphate buffer at pH 8.0 (0.39 osmolar with KCl). After addition of the enzyme and 30 min of incubation, NaOH was added and the fluorescence read at the 310/400 excitation/emission wavelength. All the experiments were performed in triplicate (data reported as mean ± SD), and IC50 values were calculated by nonlinear regression of the response/concentration (log) curve by using Prism GraphPad software (ver. 5.01).

Take `C#CCN(C)Cc1ccccc1` [Pargyline, reference compound]: the IC50 worked out at 10.9 ± 0.6 µM.
